IC50 data for 1 compound are collected here from ChEMBL document CHEMBL5126633, “Developing HDAC4-Selective Protein Degraders To Investigate the Role of HDAC4 in Huntington's Disease Pathology” (J Med Chem, 2022).

The assay is described as follows: Inhibition of class 2a HDAC in human Jurkat E6.1 cells using Boc-Lys(TFA)-AMC as substrate incubated for 24 hrs by plate reader assay. Conditions: Jurkat E6.1, 24 h. The format is cell-based.

Each structure is given as a SMILES string.

The compound `CCCN(CCC)C[C@@H](C)NC(=O)c1ccc(-c2noc(C(F)(F)F)n2)cc1` gave an IC50 of 24 nM.

As usually defined, the IC50 is the point on the concentration scale where inhibition reaches its midpoint. Low readings indicate higher potency, high ones lower potency.
